Source: patent US20070037193A1, “Modulation of peroxisome proliferator-activated receptors” (priority 2005, published 2007)

Tested on: 3T3-L1 cells
Test: Glucose transport assay, uptake of 2-deoxy-D-[3H] glucose in differentiated 3T3-L1 cells
Type: cell-based
Conditions: insulin treatment alone, 100 nM
Procedure: The effect of two of the above-described PGR3/ZADH2 inhibitors, i.e., compounds 12 and 28, on insulin sensitivity was examined as follows. 3T3-L1 cells were induced to differentiate in the same manner as described above. A glucose transport assay was performed by measuring uptake of 2-deoxy-D-[^3H] glucose according to the method described in Fingar et al. (Endocrinology 134:728-735). 1.67 μM of the inhibitor or 45 nM of a PPAR-gamma agonist, i.e., AVANDIA, was added to the cells.
10 μM cytochalasin-B was used to measure background glucose uptake levels. 100 nM of insulin was used to stimulate glucose uptake. Insulin treatment alone in differentiated 3T3-L1 cells increased glucose uptake by more than 10 folds. In the presence of either of those two PGR3/ZADH2 inhibitors, glucose uptake was increased by 30 folds.

With Insulin as the substance, how does the “increase of glucose uptake” value read?
The value was “more than 10 folds”.
